Results from ChEMBL document CHEMBL3098022, “Multifunctional cholinesterase and amyloid Beta fibrillization modulators. Synthesis and biological investigation” (ACS Med Chem Lett, 2013).

Amino acid sequences for entries named in this document (tags omitted). A change or cut given only in a name is not applied to a line headed by its entry.
UniProt P22303: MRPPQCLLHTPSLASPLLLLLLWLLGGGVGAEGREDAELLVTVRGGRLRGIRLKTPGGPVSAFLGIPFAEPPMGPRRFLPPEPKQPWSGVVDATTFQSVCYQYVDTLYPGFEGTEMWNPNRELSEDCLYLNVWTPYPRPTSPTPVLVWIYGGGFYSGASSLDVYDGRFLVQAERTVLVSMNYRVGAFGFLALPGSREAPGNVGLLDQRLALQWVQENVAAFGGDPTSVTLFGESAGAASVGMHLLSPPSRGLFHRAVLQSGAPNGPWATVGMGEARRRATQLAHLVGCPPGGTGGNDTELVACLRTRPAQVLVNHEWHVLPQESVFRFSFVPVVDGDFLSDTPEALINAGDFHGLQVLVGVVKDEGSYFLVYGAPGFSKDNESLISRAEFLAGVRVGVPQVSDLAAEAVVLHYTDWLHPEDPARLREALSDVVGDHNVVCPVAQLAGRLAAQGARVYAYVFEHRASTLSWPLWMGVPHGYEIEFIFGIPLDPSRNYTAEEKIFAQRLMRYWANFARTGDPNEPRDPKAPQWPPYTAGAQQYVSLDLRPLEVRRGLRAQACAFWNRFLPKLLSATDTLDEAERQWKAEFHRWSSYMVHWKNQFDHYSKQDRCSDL

Biological target: Acetylcholinesterase (Homo sapiens, UniProt P22303)
Experiment: Inhibition of human acetylcholine esterase-induced amyloid beta (1 to 40) aggregation at 100 uM by ThT-based fluorescence assay

## CN(CCCCNc1c2c(nc3ccccc13)CCCC2)CCCNc1c2c(nc3ccccc13)CCCC2
  inhibition: 50%
